Measured values reported in ChEMBL document CHEMBL5331053, “Defining the structure-activity relationship for a novel class of allosteric MKP5 inhibitors” (Eur J Med Chem, 2022).

Biological target: T1, Dual specificity protein phosphatase 10 (Homo sapiens, UniProt Q9Y6W6)
T1 sequence (Q9Y6W6 whole entry): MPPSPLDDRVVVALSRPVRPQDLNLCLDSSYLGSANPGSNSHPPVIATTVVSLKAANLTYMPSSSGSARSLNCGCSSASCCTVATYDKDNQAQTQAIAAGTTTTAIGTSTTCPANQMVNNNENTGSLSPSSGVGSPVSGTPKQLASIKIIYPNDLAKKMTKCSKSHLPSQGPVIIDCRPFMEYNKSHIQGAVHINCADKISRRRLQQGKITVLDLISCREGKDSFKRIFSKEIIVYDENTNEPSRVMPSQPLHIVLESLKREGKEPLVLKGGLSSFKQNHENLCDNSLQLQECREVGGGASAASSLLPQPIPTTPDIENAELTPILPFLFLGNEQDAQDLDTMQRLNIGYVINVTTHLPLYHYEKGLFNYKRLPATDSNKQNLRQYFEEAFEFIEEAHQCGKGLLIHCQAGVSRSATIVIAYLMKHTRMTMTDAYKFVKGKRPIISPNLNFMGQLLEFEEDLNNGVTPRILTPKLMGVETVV
Assay: Inhibition of MKP5 catalytic domain (unknown origin) expressed in Escherichia coli BL21 (DE3) cells assessed as p38alpha MAPK phosphopeptide dephosphorylation using phosphopeptide as substrate incubated for 15 mins followed by substrate addition by malachite green dye based analysis

SMILES	IC50
CSc1scc2c1-c1nc(SC3CCC(C)(C)C3=O)ncc1CC2 (stereo not drawn)	25 µM
COc1ccc2c(c1)CCc1cnc(SCC(=O)C(C)(C)C)nc1-2	> 200 µM
CC(C)Cc1scc2c1-c1nc(SCC(=O)C(C)(C)C)ncc1CC2	> 200 µM
CCCc1scc2c1-c1nc(SCC(=O)C(C)(C)C)ncc1CC2	11 µM

More lines, now with the values ahead:

IC50	SMILES
> 200 µM	CSc1scc2c1-c1nc(SCC(=O)N3CCCC3)ncc1CC2
> 200 µM	CSc1scc2c1-c1nc(SC3CCCC(C)(C)C3=O)ncc1CC2 (stereo not drawn)
> 200 µM	CSc1scc2c1-c1nc(SCC(=O)N(C)C)ncc1CC2
> 200 µM	CCN(CC)C(=O)CSc1ncc2c(n1)-c1c(csc1SC)CC2
